The record followed here is PubChem BioAssay AID485273 (Sanford-Burnham Center for Chemical Genomics, 2010).

Sequences of proteins named here, by UniProt entry; tags and fusion partners are left off.
UniProt P61088, whole entry, looked up: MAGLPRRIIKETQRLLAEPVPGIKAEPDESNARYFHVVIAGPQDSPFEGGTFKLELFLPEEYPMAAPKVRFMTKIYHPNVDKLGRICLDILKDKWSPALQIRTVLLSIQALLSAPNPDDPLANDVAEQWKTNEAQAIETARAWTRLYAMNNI

SMILES strings stand for the structures. The list shows a part of the results, in another mix than the full data. Activity calls are given as the source filed them. No stated cut-off is given here; in the data, active means inhibition above about 45% (passing the limit was not always enough); inconclusive means no clear call, values can overlap the other calls.

The target of this assay is Ubiquitin-conjugating enzyme E2 N (Homo sapiens) (UniProt P61088). Description: blockers of UBC13 ubiquitin chain synthesis – biochemical, TR-FRET, uHTS, primary screen (AID 485273). Conditions: UBC13 polyubiquitin chain formation, at 20 µM, active compounds read high. Background: TR-FRET usually uses a lanthanide donor and a delayed reading to cut background.
With `Cc1ccc(NP(C)(=O)Oc2ccccc2)c(C)c1` (stereo not drawn), the inhibition (in general, the change of the read-out against control, counted positive when it falls) was inactive: 2.8%.
As for `COc1ccccc1OP(C)(=O)Nc1ccc(C)cc1` (stereo not drawn), the figure is inactive: 3.1%; as for `CCOC(=O)c1ccc(NP(C)(=O)Oc2ccccc2)cc1` (stereo not drawn), inactive: 8.9%; as for `Cc1cc(C)cc(OP(C)(N)=O)c1` (stereo not drawn), inactive: -0.5%.
Regarding `COc1ccc(OP(C)(=O)Nc2cccc(F)c2)cc1` (stereo not drawn), the inhibition is inactive: 3.3%.
As to `COc1ccccc1OP(C)(=O)Nc1cc(Cl)ccc1C` (stereo not drawn), the inhibition is inactive: 11.7%.
Turning to `O=[N+]([O-])c1cc([N+](=O)[O-])c(Nc2cccnc2)c([N+](=O)[O-])c1`, the inhibition was inactive: -43.9%.
As for `Cc1cccc(C)c1OP(C)(N)=O` (stereo not drawn), the figure is inactive: -6%; as for `CC(C)(C)c1ccc(OP(C)(=O)Nc2ccc(SC(F)(F)F)cc2)cc1` (stereo not drawn), inactive: -3.7%.
Take `CCN(CC)CCCOC(=O)C(O)(c1ccccc1)c1ccccc1`: the inhibition is inactive: 6.6%.
The value for `CCOC(=O)c1ccc(NP(C)(=O)Oc2ccc(OC)cc2)cc1` (stereo not drawn) was inactive: 2.7%; that for `O=[N+]([O-])c1cc([N+](=O)[O-])c(O)c([N+](=O)[O-])c1.c1ccc(Oc2ccncc2)cc1` was inactive: -3%; that for `CCOP(C)(=S)SCC(=O)NC(C)C(=O)O` (stereo not drawn) was inactive: -0.8%.
`CP(=O)(Nc1ccccn1)Oc1ccc(Cl)cc1` (stereo not drawn): the inhibition was inactive: 1.5%.
On to `CP(=O)(Oc1ccccc1)OC(c1ccccc1)C(F)(F)F` (stereo not drawn), for which the inhibition is inactive: 5.3%.
As to `Cc1cccc(C)c1OP(C)(=O)Nc1ccc(SC(F)(F)F)cc1` (stereo not drawn), the inhibition is inactive: -6.4%.
The value for `CP(=O)(Nc1ccc(SC(F)(F)F)cc1)Oc1ccc(Cl)cc1` (stereo not drawn) was inactive: 10%; that for `Cc1cc(C)cc(OP(C)(=O)Nc2ccc(SC(F)(F)F)cc2)c1` (stereo not drawn) was inactive: 11.9%; that for `CP(=O)(NC(=O)Nc1ccccc1)Oc1ccccc1` (stereo not drawn) was inactive: 2.9%.
For `CCc1ccc(OP(C)(=O)N2CCN(c3ccc([N+](=O)[O-])cc3)CC2)cc1` (stereo not drawn), the inhibition was inactive: -14.7%.
The value for `CP(=S)(Nn1cnnc1)Oc1ccccc1` (stereo not drawn) was inactive: -1.2%; that for `CP(=O)(Nc1ccccc1Br)Oc1ccccc1` (stereo not drawn) was inactive: -0.7%.
Take `COc1ccccc1OP(C)(=O)Nc1ccccc1` (stereo not drawn): the inhibition is inactive: -6.9%.
The value for `COc1ccccc1OP(C)(=O)Nc1c(C)cccc1C` (stereo not drawn) was inactive: 2.2%; that for `CN1CCCCC1COC(=O)C1(O)c2ccccc2CCc2ccccc21` (stereo not drawn) was inactive: 7.5%; that for `CCCOc1ccc(NP(C)(=O)Oc2ccc(Cl)cc2)cc1` (stereo not drawn) was inactive: 1.7%.
As for `CP(=O)(Nc1ccc(SC(F)(F)F)cc1)Oc1ccccc1` (stereo not drawn), the figure is inactive: 12.1%; as for `CCOC(=O)C(CC)C1=NC(C)(C)Cc2ccccc21.O=[N+]([O-])c1cc([N+](=O)[O-])c(O)c([N+](=O)[O-])c1` (stereo not drawn), inactive: -8.8%.
